The values that follow are results of earlier work, collected in patent US20240327311A1, “Benzothiazole Derivative as a Urease Inhibitor for Fertilizer Application” (Sabic Agri-Nutrients Company, priority 2021, published 2024).

Chains of the proteins cited; added tags and fusions are not shown.
UniProt P07374, whole entry, looked up: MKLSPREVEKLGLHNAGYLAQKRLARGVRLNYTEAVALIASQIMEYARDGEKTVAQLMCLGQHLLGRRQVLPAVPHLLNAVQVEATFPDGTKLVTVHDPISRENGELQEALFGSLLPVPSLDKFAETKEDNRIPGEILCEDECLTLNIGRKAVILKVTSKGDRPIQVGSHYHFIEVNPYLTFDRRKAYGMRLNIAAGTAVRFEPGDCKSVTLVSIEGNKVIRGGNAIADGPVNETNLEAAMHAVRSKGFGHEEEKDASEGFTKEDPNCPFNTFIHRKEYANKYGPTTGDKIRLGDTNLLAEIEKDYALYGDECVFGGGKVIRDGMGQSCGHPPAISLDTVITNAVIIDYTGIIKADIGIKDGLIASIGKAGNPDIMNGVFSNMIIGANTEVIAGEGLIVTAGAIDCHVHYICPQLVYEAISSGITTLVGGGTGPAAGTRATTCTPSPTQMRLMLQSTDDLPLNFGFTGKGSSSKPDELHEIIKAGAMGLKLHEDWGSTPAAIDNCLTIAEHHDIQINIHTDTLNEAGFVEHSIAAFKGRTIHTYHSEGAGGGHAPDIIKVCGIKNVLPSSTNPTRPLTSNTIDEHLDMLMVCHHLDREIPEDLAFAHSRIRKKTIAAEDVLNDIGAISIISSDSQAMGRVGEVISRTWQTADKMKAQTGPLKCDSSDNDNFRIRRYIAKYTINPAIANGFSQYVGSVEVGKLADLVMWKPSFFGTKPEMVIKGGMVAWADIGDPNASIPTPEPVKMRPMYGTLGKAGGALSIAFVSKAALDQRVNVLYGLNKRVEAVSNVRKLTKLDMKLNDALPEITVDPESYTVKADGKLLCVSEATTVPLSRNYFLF

The series addresses urease (Canavalia ensiformis, UniProt P07374). Particulars: reported earlier (J. Agric. Food Chem. 2008, 56, 3721); cited from earlier work.

What is called IC50 is the concentration needed to halve the response being measured. In the case of `NP(N)(=O)Nc1nc2ccccc2s1`, the IC50 was 2 nM.
